Assay results published in patent US11472877 (Alector, dated 2022).

Chains of the proteins cited; added tags and fusions are not shown. Residues count along the entry.
UniProt Q9NP99, 21-205 limits assumed: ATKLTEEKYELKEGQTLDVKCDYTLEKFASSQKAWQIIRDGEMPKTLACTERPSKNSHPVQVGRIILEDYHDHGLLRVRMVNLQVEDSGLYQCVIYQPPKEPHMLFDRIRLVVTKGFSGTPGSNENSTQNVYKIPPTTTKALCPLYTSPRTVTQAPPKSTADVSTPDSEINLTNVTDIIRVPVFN
UniProt Q9NP99, 21-234: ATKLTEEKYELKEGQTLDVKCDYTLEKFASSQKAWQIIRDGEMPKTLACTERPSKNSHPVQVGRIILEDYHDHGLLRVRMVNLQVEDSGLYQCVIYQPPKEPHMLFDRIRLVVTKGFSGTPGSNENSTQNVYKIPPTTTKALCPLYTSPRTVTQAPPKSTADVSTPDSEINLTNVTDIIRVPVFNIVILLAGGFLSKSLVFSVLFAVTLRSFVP

B1: T1-4 Fab (Fab, V domains shown)
VH: QVQLVQSGAEVKKPGSSVKVSCKASGGTFSSYAISWVRQAPGQGLEWMGGIIPIFGTANYAQKFQGRVTITADESTSTAYMELSSLRSEDTAVYYCARHYYYGYAYFDLWGRGTLVTVSS
VL: EIVMTQSPATLSVSPGERATLSCRASQSVSSNLAWYQQKPGQAPRLLIYGASTRATGIPARFSGSGSGTEFTLTISSLQSEDFAVYYCQQFNNHPITFGGGTKVEIK
notes: Fab of T1-4
B2: T1-49 Fab (Fab, V domains shown)
VH: QVQLVQSGAEVKKPGASVKVSCKASGYTFTSYYMHWVRQAPGQGLEWMGIINPSGGSTSYAQKFQGRVTMTRDTSTSTVYMELSSLRSEDTAVYYCAREAGSWLISTAFDIWGQGTMVTVSS
VL: not shown
notes: Fab of T1-49
B3: T1-50 Fab (Fab, V domains shown)
VH: QVQLVQSGAEVKKPGASVKVSCKASGYTFTSYYMHWVRQAPGQGLEWMGIINPGGGSTSYAQKFQGRVTMTRDTSTSTVYMELSSLRSEDTAVYYCAREAGTMSSAFDIWGQGTMVTVSS
VL: not shown
notes: Fab of T1-50
B4: T1-9 Fab (Fab, V domains shown)
VH: QVQLVQSGAEVKKPGASVKVSCKASGYTFTSYYMHWVRQAPGQGLEWMGIINPSGGSTSYAQKFQGRVTMTRDTSTSTVYMELSSLRSEDTAVYYCAREAGYDISSAFDIWGQGTMVTVSS
VL: not shown
notes: Fab of T1-9
B5: T1-6 Fab (Fab, V domains shown)
VH: B4 VH with I50V, A100S, Y102H, D103S, I104Y, S105V, A107S, I110P, M116L
VL: not shown
notes: Fab of T1-6
B6: T1-53 Fab (Fab, V domains shown)
VH: B4 VH with M34I, A100S, D103H, I104V, S106T
VL: not shown
notes: Fab of T1-53
B7: T1-55 Fab (Fab, V domains shown)
VH: QVQLVQSGAEVKKPGASVKVSCKASGYTFTSYYMHWVRQAPGQGLEWMGVINPSGGSTSYAQKFQGRVTMTRDTSTSTVYMELSSLRSEDTAVYYCARGADYYAGFDYWGQGTLVTVSS
VL: not shown
notes: Fab of T1-55
B8: T1-58 Fab (Fab, V domains shown)
VH: QLQLQESGPGLVKPSETLSLTCTVSGGSISSSSYYWGWIRQPPGKGLEWIGSIYYSGSTYYNPSLKSRVTISVDTSKNQFSLKLSSVTAADTAVYYCARQEYGDGYFDLWGRGTLVTVSS
VL: not shown
notes: Fab of T1-58
B9: T1-59 Fab (Fab, V domains shown)
VH: QVQLQESGPGLVKPSETLSLTCAVSGYSISSGYYWAWIRQPPGKGLEWIGSIYHSGSTYYNPSLKSRVTISVDTSKNQFSLKLSSVTAADTAVYYCARDLGGYEGAFDPWGQGTLVTVSS
VL: not shown
notes: Fab of T1-59
B10: T1-61 Fab (Fab, V domains shown)
VH: QVQLQESGPGLVKPSETLSLTCAVSGYSISSGYYWGWIRQPPGKGLEWIGSIYHSGSTYYNPSLKSRVTISVDTSKNQFSLKLSSVTAADTAVYYCARHDDYLSSFDPWGQGTLVTVSS
VL: not shown
notes: Fab of T1-61
B11: T1-5 Fab (Fab, V domains shown)
VH: B3 VH with I50V, G54S, A100S, G101D, T102G, M103I, S104D, A106Y, I109Y, M115L
VL: not shown
notes: Fab of T1-5
B12: T1-69 Fab (Fab, V domains shown)
VH: QVQLVQSGAEVKKPGASVKVSCKASGYTFTSYGISWVRQAPGQGLEWMGWISAYNGNTNYAQKLQGRVTMTTDTSTSTAYMELRSLRSDDTAVYYCARGAGMYDGSPLGMDVWGQGTTVTVSS
VL: DIQMTQSPSSVSASVGDRVTITCRASQGISSWLAWYQQKPGKAPKLLIYAASNLQSGVPSRFSGSGSGTDFTLTISSLQPEDFATYYCQQATAHPPTFGGGTKVEIK
notes: Fab of T1-69
B13: T1-71 Fab (Fab, V domains shown)
VH: EVQLVESGGGLVQPGRSLRLSCAASGFTFGDYAMHWVRQAPGKGLEWVSGISWNSGSIGYADSVKGRFTISRDNAKNSLYLQMNSLRAEDTALYYCAKGPRRTSHLDIWGQGTMVTVSS
VL: B12 VL with S30D, N53S, A93S, H94L, P96L
notes: Fab of T1-71
B14: T1-76 Fab (Fab, V domains shown)
VH: not shown
VL: DIQMTQSPSTLSASVGDRVTITCRASQSISSWLAWYQQKPGKAPKLLIYDASSLESGVPSRFSGSGSGTEFTLTISSLQPDDFATYYCQQHSTYSWTFGGGTKVEIK
notes: Fab of T1-76
B15: T1-78 Fab (Fab, V domains shown)
VH: QLQLQESGPGLVKPSETLSLTCTVSGGSISSSSYYWGWIRQPPGKGLEWIGSIYYSGSTYYNPSLKSRVTISVDTSKNQFSLKLSSVTAADTAVYYCARDLGQYEGYFDLWGRGTLVTVSS
VL: not shown
notes: Fab of T1-78
B16: T1-7 Fab (Fab, V domains shown)
VH: B7 VH with V50I, A100L, D101I, Y103G, A104D, G105A
VL: not shown
notes: Fab of T1-7
B17: T1-16 (antibody, IgG1, V domains shown)
VH: B13 VH with G30D, R102M, T103S, S104G, H105W, L106W, D107A, I108D, M114L
VL: B12 VL with N53S, T92D, A93T, H94L, P96I
notes: huIgG1; also called TI-16; ADI-19083
B18: T1-24 (antibody, IgG1, V domains shown)
VH: B13 VH with G30D, S52T, R102L, T103L, H105A, I108V
VL: B14 VL with D50K, H91D, T93I, S95P, W96I
notes: huIgG1; also called TI-24; ADI-19150
B19: T1-23 (antibody, IgG1, V domains shown)
VH: B13 VH with G30D, S52T, R102L, T103L, H105A, I108V
VL: B14 VL with S30G, D50K, S92Q, T93S, Y94F, W96P
notes: huIgG1; also called TI-23; ADI-19090
B20: T1-19 (antibody, IgG1, V domains shown)
VH: EVQLVESGGGLVQPGGSLRLSCAASGFTFSDHHMDWVRQAPGKGLEWVGRTRNKANSYTTEYAASVKGRFTISRDDSKNSLYLQMNSLKTEDTAVYYCARGPLGYKLWGQGTLVTVSS
VL: B12 VL with T92N, A93S, H94F, P96L
notes: huIgG1; also called TI-19; ADI-19086
B21: T1-20 (antibody, IgG1, V domains shown)
VH: EVQLVESGGGLVQPGGSLRLSCAASGFTFSSYWMSWVRQAPGKGLEWVANIKQDGSEKYYVDSVKGRFTISRDNAKNSLYLQMNSLRAEDTAVYYCARDAPQLGLDVWGQGTMVTVSS
VL: not shown
notes: huIgG1; also called TI-20; ADI-19087
B22: T1-11 Fab (Fab, V domains shown)
VH: QLQLQESGPGLVKPSETLSLTCTVSGGSISSSSYYWGWIRQPPGKGLEWIGSIYYSGSTYYNPSLKSRVTISVDTSKNQFSLKLSSVTAADTAVYYCARSGEYGFDLWGRGTLVTVSS
VL: not shown
notes: Fab of T1-11
B23: T1-14 Fab (Fab, V domains shown)
VH: QVQLVESGGGVVQPGRSLRLSCAASGFTFSSYGMHWVRQAPGKGLEWVAVISYDGSNKYYADSVKGRFTISRDNSKNTLYLQMNSLRAEDTAVYYCARRSSGDYLDVWGQGTMVTVSS
VL: not shown
notes: Fab of T1-14
B24: T1-17 Fab (Fab, V domains shown)
VH: QVQLQESGPGLVKPSETLSLTCTVSGGSISSYYWSWIRQPPGKGLEWIGSIYYSGSTNYNPSLKSRVTISVDTSKNQFSLKLSSVTAADTAVYYCARGAPGGRHNWFDPWGQGTLVTVSS
VL: DIQMTQSPSSLSASVGDRVTITCQASQDISNYLNWYQQKPGKAPKLLIYDASNLATGVPSRFSGSGSGTDFTFTISSLQPEDIATYYCQQSDIHPRTFGGGTKVEIK
notes: Fab of T1-17
B25: T1-18 Fab (Fab, V domains shown)
VH: B13 VH with G30D, S57D, S78T, R102M, T103V, S104T, I108V
VL: B14 VL with D50K, H91D, T93I, S95P, W96I
notes: Fab of T1-18
B26: T1-34 Fab (Fab, V domains shown)
VH: EVQLVESGGGLVKPGGSLRLSCAASGFTFSSYSMNWVRQAPGKGLEWVSSISSSSNYIYYADSVKGRFTISRDNAKNSLYLQMNSLKAEDTAVYYCARRPDDRRGLFQHWGQGTLVTVSS
VL: B14 VL with S30N, Y49S, H91Y, S92G, T93P, S95P, W96Y
notes: Fab of T1-34
B27: T1-36 Fab (Fab, V domains shown)
VH: QVQLVESGGGVVQPGRSLRLSCAASGFTFSSYGMHWVRQAPGKGLEWVAVISYDGSNKYYADSVKGRFTISRDNSKNTLYLQMNSLRAEDTAVYYCARPDYYSSRGVFDIWGQGTMVTVSS
VL: not shown
notes: Fab of T1-36

Assays:
Human TREM1-Fc = target: T1, Human TREM1-Fc (human, UniProt Q9NP99 21-205, limits assumed); test: Fab on human TREM1-Fc, monovalent; method not stated
T1 construct: not shown: Fc part

human TREM1 on cells [1] = target: T2, human TREM1 on cells (human, UniProt Q9NP99 21-234); test: FACS, CHO human TREM1
T2 construct: Some reporter cells carry a human TREM1/CD3 zeta fusion instead; also called CHO-huT1; CHO-hT1

human TREM1 on cells [2] = target: T2, human TREM1 on cells; test: FACS, human neutrophils

| Binder | Kd (Human TREM1-Fc) [µM] | koff (Human TREM1-Fc) [s⁻¹] | kon (Human TREM1-Fc) [M⁻¹ s⁻¹] | FOB Fold Over Background (human TREM1 on cells [1]) [fold] | FOB Fold Over Background (human TREM1 on cells [2]) [fold] |
| --- | --- | --- | --- | --- | --- |
| B1 | 0.047 | 0.00851 | 181000 | – | – |
| B2 | 0.00539 | 0.000828 | 154000 | – | – |
| B3 | 0.028 | 0.00391 | 140000 | – | – |
| B4 | 0.0596 | 0.00861 | 145000 | – | – |
| B5 | 0.123 | 0.013 | 106000 | – | – |
| B6 | 0.0141 | 0.00175 | 124000 | – | – |
| B7 | 0.031 | 0.00326 | 105000 | – | – |
| B8 | 0.0226 | 0.00514 | 227000 | – | – |
| B9 | 0.0207 | 0.00466 | 225000 | – | – |
| B10 | 0.111 | 0.00751 | 67700 | – | – |
| B11 | 0.148 | 0.00802 | 54300 | – | – |
| B12 | 0.0261 | 0.00875 | 335000 | – | – |
| B13 | 0.0223 | 0.0274 | 1.23e+06 | – | – |
| B14 | 0.0293 | 0.0217 | 742000 | – | – |
| B15 | 0.0361 | 0.01 | 277000 | – | – |
| B16 | 0.0319 | 0.00636 | 199000 | – | – |
| B17 | – | – | – | 298 | 1.6 |
| B18 | – | – | – | 489 | 6.9 |
| B19 | – | – | – | 448 | 2.6 |
| B20 | – | – | – | 420 | 1.4 |
| B21 | – | – | – | 408 | 1.3 |
| B22 | 0.0704 | 0.00566 | 80400 | – | – |
| B23 | 0.213 | 0.00862 | 40600 | – | – |
| B24 | 0.0914 | 0.00748 | 81900 | – | – |
| B25 | 0.186 | 0.0146 | 78800 | – | – |
| B26 | 0.00426 | 0.000458 | 108000 | – | – |
| B27 | 0.00737 | 0.00292 | 396000 | – | – |

Where a chain is given by its changes, count along the chain named.
